Literature values in patent US10172966B2, “Image guided boronated glucose neutron capture therapy” (priority 2014, dated 2019).

Columns and labels:
colorectal cancer = conditions: in vivo
bladder cancer = conditions: in vivo

SUV values (colorectal cancer): around 8
SUV values (bladder cancer): ~7
Compound: OCC1O[C@H](O)C(F)[C@@H](O)[C@@H]1O (stereo partly drawn) [FDG, 18F-2-fluoro-2-deoxy-D-glucose]
